Molecular target: T1, adenosine (purine) receptors (Cavia porcellus, UniProt P47745)
T1 construct: Ilea were removed from sacrificed guinea pigs; from tissue; host or cells: guinea pig ileum
Assay: Guinea pig ileum twitch test: purine receptor antagonism against 2-chloroadenosine (Schild regression)
Settings: agonist 2-chloroadenosine
Description: Accordingly, a representative number of compounds of the present invention were tested for their ability to antagonise the purine receptors using the guinea pig ileum test system.
Ilea were removed from sacrificed guinea pigs and placed in organ baths containing oxygenated Krebs-Henseleit buffer. After equilibration, the ilea were stimulated to contract (twitch contraction) using an electrical field-stimulus of 0.1 Hz, 0.05 ms duration and maximal voltage. Under these conditions, the twitch contraction results from the release of acetylcholine.
Concentration response curves to the purine agonist, 2-chloroadenosine, were determined first in the absence and then in the presnce of multiple concentrations of the compounds of the invention. One concentration of each compound was used per tissue. Quantification of purine receptor antagonism was accomplished using the Schild regression technique, i.e. plots of log (dose-ratio-l) vs log compound concentration, and the pA2 determined by regression of the data points to the x-intercept, where log (dose-ratio-l) is zero.

Amino acid sequences for entries named in this document (tags omitted).
UniProt P47745, whole entry: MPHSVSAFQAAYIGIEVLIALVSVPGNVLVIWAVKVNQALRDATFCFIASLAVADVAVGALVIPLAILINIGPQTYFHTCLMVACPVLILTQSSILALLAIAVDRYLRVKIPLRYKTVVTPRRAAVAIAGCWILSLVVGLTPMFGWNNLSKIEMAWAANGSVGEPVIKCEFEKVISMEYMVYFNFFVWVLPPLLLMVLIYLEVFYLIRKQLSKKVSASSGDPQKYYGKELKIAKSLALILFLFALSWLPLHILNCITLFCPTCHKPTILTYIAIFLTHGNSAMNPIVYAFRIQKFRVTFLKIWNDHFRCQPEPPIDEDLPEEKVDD

Cn1c(=O)c2[nH]cnc2n(C)c1=O [THEOPHYLLINE, 1,3-dimethylxanthine, reference compound]
pA2 guinea pig ileum (slope): slope of Schild regression: 1.1

Source: US5017577A, “Methods for treating viral infection” (Burroughs Wellcome Co., priority 1989, dated 1991)
